This note sets out measurements from PubChem BioAssay AID504327 (National Center for Advancing Translational Sciences (NCATS), 2011).

Amino acid sequences for entries named in this document (tags omitted).
UniProt Q92830, whole entry: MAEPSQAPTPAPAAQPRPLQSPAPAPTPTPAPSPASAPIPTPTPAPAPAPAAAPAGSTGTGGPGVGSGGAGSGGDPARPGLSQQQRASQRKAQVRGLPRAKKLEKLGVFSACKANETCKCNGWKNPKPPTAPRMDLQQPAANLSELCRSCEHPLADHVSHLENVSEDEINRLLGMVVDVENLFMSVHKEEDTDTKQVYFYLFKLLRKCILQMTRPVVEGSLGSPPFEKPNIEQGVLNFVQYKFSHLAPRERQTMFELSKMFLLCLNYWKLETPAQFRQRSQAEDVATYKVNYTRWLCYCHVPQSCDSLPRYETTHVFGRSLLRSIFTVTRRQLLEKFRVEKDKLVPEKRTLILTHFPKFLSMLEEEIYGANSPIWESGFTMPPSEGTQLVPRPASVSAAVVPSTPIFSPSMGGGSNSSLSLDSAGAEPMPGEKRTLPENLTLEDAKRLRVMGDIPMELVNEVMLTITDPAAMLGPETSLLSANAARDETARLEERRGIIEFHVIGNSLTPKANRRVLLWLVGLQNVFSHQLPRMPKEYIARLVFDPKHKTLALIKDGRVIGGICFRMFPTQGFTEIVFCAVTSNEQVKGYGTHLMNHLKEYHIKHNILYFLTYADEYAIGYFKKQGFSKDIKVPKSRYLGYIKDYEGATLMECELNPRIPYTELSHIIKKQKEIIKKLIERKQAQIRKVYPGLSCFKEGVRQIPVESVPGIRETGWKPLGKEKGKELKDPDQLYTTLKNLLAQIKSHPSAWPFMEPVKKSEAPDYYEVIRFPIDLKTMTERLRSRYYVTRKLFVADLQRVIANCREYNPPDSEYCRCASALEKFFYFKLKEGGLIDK

Structures are written as SMILES. The entries are a selection whose mix differs from that of the whole data set. Results filed as inconclusive are left out. The source made the active and inactive calls. Calls come from the whole dose curve; as a rule, active = well fitted inhibition curve with a large enough effect; inconclusive = small, poorly fitted or top-dose-only effect, or another doubt; inactive = no such curve, though single readings can be large or run the other way.
% is set by controls: 0 for no effect and ±100 for the full control effect.

The experiment concerns the target Histone acetyltransferase KAT2A (Homo sapiens) (UniProt Q92830). As to the kind of experiment: qHTS Assay for Inhibitors of GCN5L2. The settings on record: GCN5L2 HAT assay, ThioGlo1 CoA-SH fluorescence; at 58.9 µM (top of the series).
For `COc1cc(C(=O)NCC2(N3CCOCC3)CCCCC2)cc(OC)c1C`, the activity change, negative = inhibition was inactive: -4.83%.

For `O=C(NCC1(N2CCOCC2)CCCCC1)c1cc(Br)ccc1Cl`, the activity change, negative = inhibition was inactive: -1.74%.

As to `COc1ccc(C(=O)NCC2(N3CCOCC3)CCCCC2)cc1OC`, the activity change, negative = inhibition was inactive: -15%.

For `N/C(=N\O)c1c(N)no[n+]1[O-]`, the activity change, negative = inhibition was inactive: 1.59%.

As to `O=C(O)c1cccc(Nc2c([N+](=O)[O-])cc([N+](=O)[O-])cc2[N+](=O)[O-])c1`, the activity change, negative = inhibition is inactive: -25.6%.

Take `CCc1cc(C(=O)NCC2(N3CCCCC3)CCCCC2)sc1C`: the activity change, negative = inhibition was inactive: -4.83%.

Regarding `O=C(OC1CN2CCC1CC2)C1c2ccccc2C=Cc2ccccc21` (configuration not stated), the activity change, negative = inhibition is inactive: 0.681%.

With `O=C(NCC1(N2CCOCC2)CCCCC1)c1ccccc1[N+](=O)[O-]`, the activity change, negative = inhibition is inactive: -0.0727%.

As for `N#Cc1ccc(C(=O)NCC2(N3CCCCC3)CCCCC2)cc1`, the activity change, negative = inhibition is inactive: -7.23%.

On to `O=C(NCC1(N2CCOCC2)CCCCC1)c1ccc([N+](=O)[O-])cc1`, for which the activity change, negative = inhibition is inactive: -4.89%.

`CC(C)(C)OC(=O)N1CCC(N(C(=O)c2ccccc2)c2ccc(Cl)cc2)CC1`: the activity change, negative = inhibition is inactive: -4.29%.

Consider `CCOC(=O)C(CC)C1=NC(C)(C)Cc2ccccc21.O=[N+]([O-])c1cc([N+](=O)[O-])c(O)c([N+](=O)[O-])c1` (configuration not stated), for which the activity change, negative = inhibition is inactive: -2.47%.

On to `CN(C)C1(CNC(=O)c2cccc(C#N)c2)CCCCC1`, for which the activity change, negative = inhibition was inactive: -8.02%.

With `CCCN1CCC(Nc2cc(OC)cc(OC)c2)CC1`, the activity change, negative = inhibition is inactive: 3.32%.

For the compound `O=C(NCC1(N2CCOCC2)CCCCC1)c1ccccc1`, the activity change, negative = inhibition was inactive: -15.4%.

Regarding `c1ccc(CN2CCC(Nc3ccccc3)CC2)cc1`, the activity change, negative = inhibition was inactive: -5.7%.

Regarding `CN(C)C1(CNC(=O)c2ccc(C(C)(C)C)cc2)CCCCC1`, the activity change, negative = inhibition was inactive: -2.22%.

Consider `COc1cc(OC)cc(C(=O)NCC2(N3CCCCC3)CCCCC2)c1`, for which the activity change, negative = inhibition is inactive: -8.13%.

As to `Fc1ccccc1NC1CCN(Cc2ccccc2)CC1`, the activity change, negative = inhibition is inactive: -3.66%.

Take `Cc1ccc(C(=O)NCC2(N3CCCCC3)CCCCC2)o1`: the activity change, negative = inhibition is inactive: -3.49%.

Regarding `CCN1CCC(Nc2cccc(F)c2)CC1`, the activity change, negative = inhibition is inactive: 1.81%.

For `CN(C)c1ccc(C(=O)NCC2(N3CCCCC3)CCCCC2)cc1`, the activity change, negative = inhibition is inactive: 12.8%.

Take `O=C(NCC1(N2CCCCC2)CCCCC1)c1ccco1`: the activity change, negative = inhibition was inactive: -2.81%.

As to `CC(C)(C)c1ccc(C(=O)NCC2(N3CCOCC3)CCCCC2)cc1`, the activity change, negative = inhibition was inactive: -12.7%.

For the compound `CN1CCC(Nc2ccc(F)c(Cl)c2)CC1`, the activity change, negative = inhibition was inactive: -4.22%.

In the case of `CCOc1ncccc1C(=O)NCC1(N2CCOCC2)CCCCC1`, the activity change, negative = inhibition was inactive: -3.78%.

On to `O=C(O)C1(Nc2ccccc2)CCN(Cc2ccccc2)CC1`, for which the activity change, negative = inhibition is inactive: -3.99%.
